In PubChem BioAssay AID796 (Columbia University Molecular Screening Center, 2007) one finds inhibition data, which are given here for three compounds.

The structures appear in SMILES notation. This is a selection; strong and weak results do not stand in their true shares. Some of these compounds have results that are not shown, active ones among them. Calls of active or inactive are those of the source.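 How the source made its calls: active means inhibition above about 30% together with a positive call from visual inspection of the well image (limit read from the data); inconclusive means inhibition above a set limit but visual check negative; inactive means inhibition not above a set limit, visual check negative.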

This experiment is described as follows: inhibitors of IL-1B driven NFkB p65 nuclear import, primary screen, imaging, HUVEC, IL-1B stimulus, high-content imaging (AID 796).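 Further: nuclear over cytoplasmic p65 intensity ratio measured by imaging; 0% = IL-1B stimulated DMSO wells and 100% = unstimulated DMSO wells.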 The following applies: HUVEC IL-1B NFkB p65 nuclear translocation imaging; at 2 µM; active compounds read high.
Take `CC(C)N1C(=O)CC2(CCN(CCOC(=O)C(O)(c3ccccc3)c3ccccc3)CC2)C1=O`: the inhibition is inactive: 9.4%.

Take `O=C(OC1CN2CCC1CC2)C(CO)(c1ccccc1)c1ccccc1` (stereo not drawn): the inhibition was inactive: -7.3%.

`CN(C)c1cccc(C(=O)NCC2(N(C)C)CCCCC2)c1`: the inhibition is inactive: -3.8%.

Usually inhibition stands for the change of the read-out against control, counted positive when it falls.
